## Apparent affinities of Ab-95 variants for a coronavirus HR2 peptide

Reference: Engelhart et al. 2022, doi:10.1038/s41597-022-01779-4. File: FLAb, binding data.

Antigen: PDVDLGDISGINAS, a 14-residue peptide of the SARS-CoV-2 spike HR2 region.

Each scFv is VH, three GGGGS repeats, VL, as in the parent Ab-95, and differs from it in the CDRs of the light chain only.
VH: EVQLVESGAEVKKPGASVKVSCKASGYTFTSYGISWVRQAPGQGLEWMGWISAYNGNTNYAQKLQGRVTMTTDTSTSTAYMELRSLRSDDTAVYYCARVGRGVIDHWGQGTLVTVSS
VL: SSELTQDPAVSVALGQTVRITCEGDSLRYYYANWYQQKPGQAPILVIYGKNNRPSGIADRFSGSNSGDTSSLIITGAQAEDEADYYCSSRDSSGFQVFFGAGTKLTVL

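The starting antibody came from a phage panning campaign against this peptide. AAYL52 was designed without a model: most single CDR substitutions and a random sample of double and triple ones. Affinity was read by AlphaSeq, a pooled yeast mating assay with surface-displayed partners. Mating (16 h, 30 °C) was followed by selection of diploids and sequencing of their barcodes. Each replicate has its own calibration line, from reference interactions of the BCL2 family. Mating was done three times.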

Substitutions are numbered in sequence along the VL above, starting at 1 (not Kabat).
This list gathers variants with a substitution at Y31 (VL, numbered from residue 1).
Values are log10 of the apparent Kd in nM; lower means stronger binding.
Averages over replicates are reported, and they cover detected replicates only.
An entry "nd" has no value in the source: the pair was not observed among the diploids in any replicate. This suggests poor binding but is not conclusive.
Three control strains display no target. For library AAYL52, 28% of the pairings with them gave a signal, with a median of 3.91 and one signal in twenty below 2.90, so weak values seen in few replicates may be background.

Variant S26P Y31A D91E gave nd (0 of 3 replicates).
Variant Y31T N51I S93K gave 4.35 (1 of 3 replicates).
Variant Y31M Q96G gave 2.86 (3 of 3 replicates).
Variant G24T Y31R S89M gave 3.19 (3 of 3 replicates).
Variant Y31D S89M F95Q gave 3.09 (3 of 3 replicates).
Variant D25T Y31V F95E gave 2.82 (3 of 3 replicates).
Variant S26N Y31R R53M gave 4.66 (1 of 3 replicates).
Variant Y31K S55D gave 1.80 (3 of 3 replicates).
Variant D25H Y31N F95L gave 2.41 (3 of 3 replicates).
Variant Y31M R53K F95M gave 2.62 (3 of 3 replicates).
Variant Y31E G49H F98W gave 2.36 (3 of 3 replicates).
Variant Y31K N33D S55M gave 2.04 (3 of 3 replicates).
Variant D25W Y31F S55I gave 3.99 (3 of 3 replicates).
Variant Y31G F95P gave 1.99 (3 of 3 replicates).
Variant Y31R K50H R53T gave 3.28 (3 of 3 replicates).
Variant Y31K G94W V97W gave 3.19 (2 of 3 replicates).
Variant Y31M S93A gave 1.72 (3 of 3 replicates).
Variant Y31M K50Q P54W gave 2.17 (3 of 3 replicates).
Variant Y31K R53P S89W gave 4.00 (2 of 3 replicates).
Variant S26V Y31V N33V gave nd (0 of 3 replicates).
Variant Y31G S89K G94V gave 3.60 (2 of 3 replicates).
Variant G24L Y30V Y31F gave 4.52 (3 of 3 replicates).
Variant Y29L Y31F N33T gave 4.02 (3 of 3 replicates).
Variant Y31Q S55V gave 1.19 (3 of 3 replicates).
Variant E23Q Y31Q S89P gave 2.18 (3 of 3 replicates).
Variant Y31T S93H F95A gave 2.24 (3 of 3 replicates).
Variant Y31A K50P S92G gave 1.81 (3 of 3 replicates).
Variant L27T Y31T F98D gave 3.77 (1 of 3 replicates).
Variant Y31F D91R F95N gave 2.36 (3 of 3 replicates).
Variant L27K Y31L P54G gave 4.42 (2 of 3 replicates).
Variant Y31K N52D gave 1.50 (3 of 3 replicates).
Variant Y31T N51K Q96Y gave 3.82 (2 of 3 replicates).
Variant G24S Y31T N51F gave 4.60 (3 of 3 replicates).
Variant S26Q Y30Q Y31W gave 1.39 (3 of 3 replicates).
Variant S26P Y31S N33A gave 2.96 (3 of 3 replicates).
Variant Y31N G49S F95S gave 1.66 (3 of 3 replicates).
Variant Y31A S93E G94K gave 3.21 (1 of 3 replicates).

Extract of 3 entries:

Variant Y31T N51K Q96Y showed 3.82 (2 of 3 replicates).
Variant L27T Y31T F98D showed 3.77 (1 of 3 replicates).
Variant Y31N G49S F95S showed 1.66 (3 of 3 replicates).

Parent in this assay: reference entry 2.31, copy in this library 2.25.